# Yeast mating assay 2: variants of the scFv Ab-95

All variants were tested on one target, the spike HR2 peptide PDVDLGDISGINAS (SARS-CoV-2).

Parent scFv Ab-95: VH joined to VL by three GGGGS repeats. Changes lie in the light chain CDRs alone.
VH: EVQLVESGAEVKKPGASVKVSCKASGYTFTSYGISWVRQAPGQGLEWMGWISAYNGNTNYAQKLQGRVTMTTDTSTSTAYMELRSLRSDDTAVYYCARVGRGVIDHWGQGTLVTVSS
VL: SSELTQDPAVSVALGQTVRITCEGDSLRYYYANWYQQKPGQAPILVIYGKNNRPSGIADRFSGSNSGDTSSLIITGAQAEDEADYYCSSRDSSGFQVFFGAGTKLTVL

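The parent was found by panning a naive human phage display library on the peptide. Variants in AAYL52 differ from the parent at up to three CDR positions; double and triple changes were sampled at random. AlphaSeq pools MATa yeast showing the antibodies with MATalpha yeast showing the peptide. Binding brings cells together so that they mate, and sequencing counts the barcode pairs among the diploids. Read counts were normalised to the haploid input and turned into Kd by a linear fit to BCL2-family pairs of known affinity, for each replicate. Each pool was mated in three replicate cultures.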

Changes read parent residue, position, new residue, counted from the first residue of the VL shown. Scale: log10 of Kd in nM, estimated from mating counts; low values are strong binders. Replicates are averaged; those with no signal do not enter the mean. "nd" marks a missing value. The strain was present, yet no cells mated with the target were sequenced in that replicate, which points to weak or no binding. For reference, the parent read 2.31 as the reference entry and 2.25 as a member of this library.

| # | changes | log10 Kd (nM) by replicate | log10 Kd (nM), mean | control signals |
|---|---|---|---|---|
| 1 | S26F/G49F/F98W | 3.85 3.96 4.16 | 3.99 | 5 of 9 (4.34) |
| 2 | N51R/N52G/V97M | 4.89 4.12 3.55 | 4.19 | 5 of 9 (4.34) |
| 3 | Y31F/P54H/R90I | nd 2.88 nd | 2.88 | 1 of 9 (4.13) |
| 4 | R90I/D91N/Q96L | nd nd nd | nd | 2 of 9 (3.96) |
| 5 | K50W/D91V/V97F | nd nd nd | nd | 1 of 9 (2.97) |
| 6 | R90Q/D91T/G94D | nd nd nd | nd | 1 of 9 (3.31) |
| 7 | E23W/S26D/F98W | 2.96 nd nd | 2.96 | 1 of 9 (4.51) |
| 8 | S26W/G49K/P54I | 3.95 4.34 3.44 | 3.91 | 2 of 9 (3.16) |
| 9 | E23I/R28H/Y30E | 1.18 1.20 0.81 | 1.06 | 4 of 9 (4.84) |
| 10 | G24L/N33L/D91Q | nd nd nd | nd | 1 of 9 (4.43) |
| 11 | Y31I/N33W/G94D | nd 4.22 3.28 | 3.75 | 1 of 9 (3.81) |
| 12 | N51L/P54T/S55V | nd nd nd | nd | 1 of 9 (4.40) |
| 13 | E23S/P54L/S88I | 2.58 2.66 2.69 | 2.64 | 4 of 9 (4.34) |
| 14 | S26H/L27R/S92W | nd nd nd | nd | 3 of 9 (3.14) |
| 15 | L27V/P54S/S55G | 3.55 3.93 3.35 | 3.61 | 6 of 9 (3.81) |
| 16 | D25S/Y31W/R90E | 3.41 3.04 nd | 3.22 | 5 of 9 (4.18) |
| 17 | G24Q/S88K/S89Y | nd nd nd | nd | 1 of 9 (2.85) |
| 18 | S26C/D91C | 3.50 nd 4.22 | 3.86 | 2 of 9 (4.04) |
| 19 | Y31D/R53W/F95L | 3.18 3.07 3.10 | 3.12 | 6 of 9 (3.61) |
| 20 | E23V/D25C/K50L | 3.80 nd nd | 3.80 | 3 of 9 (3.96) |
| 21 | N33E/N52D/P54R | 3.65 5.41 3.76 | 4.27 | 7 of 9 (3.39) |
| 22 | G24Q/F95L/F98Y | 2.90 nd nd | 2.90 | 1 of 9 (3.54) |
| 23 | N51I/S88Y/S92E | 3.32 nd 3.76 | 3.54 | 0 of 9 |
| 24 | G24P/R53K/S93C | nd nd nd | nd | 0 of 9 |
| 25 | K50C/N51K/G94Y | 3.76 4.92 nd | 4.34 | 2 of 9 (4.43) |
| 26 | E23T/D25T/S89L | 2.96 3.21 3.25 | 3.14 | 4 of 9 (3.82) |
| 27 | G24T/R53A/P54N | nd nd nd | nd | 3 of 9 (4.18) |
| 28 | D25F/S26P/A32Y | 3.46 2.65 2.58 | 2.89 | 3 of 9 (4.18) |
| 29 | S26G/L27N/G49T | 3.66 4.75 nd | 4.20 | 3 of 9 (3.65) |
| 30 | Y30S/N52Q/Q96V | 1.29 1.08 0.62 | 1.00 | 5 of 9 (4.74) |
| 31 | Y29G/D91M | 4.46 3.34 4.56 | 4.12 | 3 of 9 (3.67) |
| 32 | Y29E/K50S | 2.43 2.23 2.52 | 2.39 | 1 of 9 (5.08) |
| 33 | N52C/S55A/F95V | 2.68 nd nd | 2.68 | 0 of 9 |
| 34 | N33G/S88G/S92R | nd nd nd | nd | 1 of 9 (2.88) |
| 35 | S88I/R90N/G94W | 4.00 nd nd | 4.00 | 0 of 9 |
| 36 | D25S/P54L | 3.07 3.65 2.66 | 3.13 | 1 of 9 (3.30) |
| 37 | D25N/R28G/G94M | 3.28 3.29 2.92 | 3.16 | 3 of 9 (3.78) |
| 38 | Y31T/P54Y/S93L | nd 3.94 nd | 3.94 | 3 of 9 (3.43) |
| 39 | G24L/S88H/G94M | 3.79 nd 3.25 | 3.52 | 2 of 9 (4.23) |
| 40 | L27E/G94A/Q96S | nd 4.22 3.99 | 4.10 | 2 of 9 (4.86) |
| 41 | Y30Q/R90S/Q96M | 1.52 1.53 1.35 | 1.47 | 1 of 9 (3.82) |
| 42 | S26D/G94T/V97Y | nd 5.25 3.65 | 4.45 | 1 of 9 (3.99) |
| 43 | A32D/S88V/S93R | nd nd nd | nd | 0 of 9 |
| 44 | S55T/G94R/F95N | 2.00 2.39 1.61 | 2.00 | 1 of 9 (3.97) |
| 45 | D25F/A32L/S93P | nd 3.62 3.46 | 3.54 | 4 of 9 (4.00) |
| 46 | N52I/R53L/R90W | 2.80 3.10 3.76 | 3.22 | 3 of 9 (4.02) |
| 47 | S26Y/A32L/R53P | nd 3.23 4.80 | 4.02 | 3 of 9 (4.46) |
| 48 | E23R/S26M | 3.44 4.49 3.08 | 3.67 | 2 of 9 (3.98) |

Top 5 of the variants detected in all replicates, tightest first:

{"changes": "Y30S/N52Q/Q96V", "log10 Kd (nM) by replicate": "1.29 1.08 0.62", "log10 Kd (nM), mean": "1.00", "control signals": "5 of 9 (4.74)"}
{"changes": "E23I/R28H/Y30E", "log10 Kd (nM) by replicate": "1.18 1.20 0.81", "log10 Kd (nM), mean": "1.06", "control signals": "4 of 9 (4.84)"}
{"changes": "Y30Q/R90S/Q96M", "log10 Kd (nM) by replicate": "1.52 1.53 1.35", "log10 Kd (nM), mean": "1.47", "control signals": "1 of 9 (3.82)"}
{"changes": "S55T/G94R/F95N", "log10 Kd (nM) by replicate": "2.00 2.39 1.61", "log10 Kd (nM), mean": "2.00", "control signals": "1 of 9 (3.97)"}
{"changes": "Y29E/K50S", "log10 Kd (nM) by replicate": "2.43 2.23 2.52", "log10 Kd (nM), mean": "2.39", "control signals": "1 of 9 (5.08)"}

Nonspecific signal, from three strains lacking the peptide, appeared in 28% of pairings of library AAYL52, centred on 3.91 (5% of these signals below 2.90); values are not corrected for it. The control count says in how many pairings with the empty strains this scFv gave a signal, with their mean in brackets.

Source: Engelhart et al. 2022 (doi:10.1038/s41597-022-01779-4), MIT Lincoln Laboratory and A-Alpha Bio; data file from the FLAb repository.